## AlphaSeq binding of Ab-14 light chain variants to a spike HR2 peptide

The target is the same throughout: PDVDLGDISGINAS, from the HR2 region of SARS-CoV-2 spike.

Each scFv is VH, three GGGGS repeats, VL, as in the parent Ab-14, and differs from it in the CDRs of the light chain only.
VH: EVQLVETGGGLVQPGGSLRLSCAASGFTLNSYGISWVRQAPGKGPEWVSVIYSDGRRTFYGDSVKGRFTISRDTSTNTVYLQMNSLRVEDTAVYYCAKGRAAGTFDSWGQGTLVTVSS
VL: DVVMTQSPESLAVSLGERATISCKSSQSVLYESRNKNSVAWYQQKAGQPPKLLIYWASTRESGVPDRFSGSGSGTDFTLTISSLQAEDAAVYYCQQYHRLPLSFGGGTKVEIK

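The starting antibody came from a phage panning campaign against this peptide. These sequences belong to a second round, designed from the earlier measurements on random variants of the parent. Their group label is 14L_GP_Gen (GP: Gaussian process model; Gen: genetic algorithm; a sequence that several methods proposed may carry one label only). Affinity was read by AlphaSeq, a pooled yeast mating assay with surface-displayed partners. Binding brings cells together so that they mate, and sequencing counts the barcode pairs among the diploids. The ratio of observed to expected reads was calibrated, replicate by replicate, on BCL2-family standards whose Kd was known from biolayer interferometry. Each pool was mated in six replicate cultures.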

Changes read parent residue, position, new residue, counted from the first residue of the VL shown. Numbers give log10(Kd / nM), so 0 is 1 nM and 3 is 1 µM. Smaller is tighter. "n.d." marks a missing value. The strain was present, yet no cells mated with the target were sequenced in that replicate, which points to weak or no binding.

changes,"replicates, log10 nM",empty controls
S25L V29D S33Q W56E,-0.02 0.02 -0.06 0.05 -0.11 0.18,0/18
S25L V29A W56G,0.75 1.16 0.72 1.00 0.48 1.29,0/18
S25L S26E W56N T59Q E61M,0.31 0.13 0.09 0.30 0.03 0.09,0/18
S25L S26P W56D S62D,-0.27 -0.50 -0.70 -0.76 -0.60 -0.49,1/18 (2.97)
S25L V29W W56N E61M S62Q,0.59 0.78 0.47 0.33 0.47 0.94,2/18 (2.47)
S25L K36A S38N W56D,-0.37 -0.49 -0.57 -0.68 -0.53 -0.30,1/18 (2.22)
S25L V29Q L30E W56N E61L,-0.19 -0.32 0.07 -0.45 -0.03 -0.19,0/18
S25L V29E W56H T59Q,-0.08 -0.37 -0.32 -0.54 -0.25 -0.29,0/18
S25L S33M W56E,0.31 0.17 -0.29 0.02 -0.09 -0.16,0/18
S25L V29H W56N S62K,0.24 0.40 0.36 0.12 0.01 0.81,1/18 (1.70)
S25L V29Q L30W W56N,-0.29 -0.39 -0.41 -0.42 -0.36 -0.20,1/18 (3.68)
S25V S26V V29W W56N T59Q,0.07 0.18 -0.02 -0.01 -0.01 0.19,2/18 (2.10)
S25L W56E E61M Q96D,0.15 0.08 0.09 0.01 0.08 0.14,0/18
S25L S26P Q27W V29Q W56N,-0.33 -0.52 -0.53 -0.68 -0.53 -0.31,0/18
S25V S26Q L30P W56N T59Q,0.13 0.10 -0.13 -0.34 -0.08 0.01,1/18 (2.67)
S25M V29E W56N T59Y,0.00 0.05 -0.09 0.14 -0.18 0.10,1/18 (1.73)
S25L S26P W56D T59Q,-0.38 -0.56 -0.52 -0.59 -0.54 -0.50,0/18
S25I W56D E61L,0.13 -0.11 -0.10 -0.21 -0.19 0.04,2/18 (3.16)
S25L S26P V29H N35M W56N,0.63 0.42 0.27 0.28 0.34 0.37,3/18 (1.75)
S25L Q27T W56E,0.39 0.28 0.24 0.15 0.30 0.61,3/18 (3.03)
S25L L30W W56D,-0.23 -0.18 -0.61 -0.22 -0.35 -0.05,1/18 (2.10)
S25L L30W Y31M W56N,0.23 0.13 -0.01 -0.17 -0.34 0.02,3/18 (2.20)
S25L S38N W56E E61S,0.07 -0.12 -0.04 -0.33 -0.33 0.04,0/18
S25V V29W W56N T59K,-0.37 -0.41 0.00 -0.28 -0.28 0.05,0/18
S25L S26P L30P W56N S62V,0.31 0.02 -0.07 -0.15 0.04 0.32,2/18 (3.24)
S25L L30D S38N W56G,-0.15 -0.10 -0.10 -0.21 -0.32 -0.03,0/18
S25L L30P W56N E61C,0.28 0.22 0.03 0.01 0.16 0.22,0/18
S25V S33Q W56N,0.06 1.14 0.66 0.26 0.61 1.25,0/18
S25V L30P W56E S62Q,-1.54 -1.47 -1.34 n.d. n.d. -1.45,0/18
S25V V29W N35V W56N T59Q,-0.13 -0.38 -0.11 -0.25 -0.27 -0.11,0/18
S25M L30M Y31M W56D,-0.11 -0.03 -0.30 -0.35 0.08 0.13,0/18
S25L E32L W56D,-0.35 -0.31 -0.40 -0.62 -0.37 -0.39,0/18
S25V S26Q W56N T59Q E61L,0.07 -0.13 -0.22 -0.27 -0.20 -0.08,2/18 (3.30)
S25V V29E W56N T59E,-0.48 -0.87 -0.40 -0.20 -0.39 -0.18,0/18
S25L E32L W56E,-0.08 -0.18 -0.17 -0.34 -0.26 0.10,4/18 (4.28)
S25L L30M Y31G W56N,0.11 -0.03 -0.26 -0.30 -0.15 -0.10,2/18 (3.48)
S25L Q27D W56D,-0.07 -0.24 -0.32 -0.47 -0.34 -0.10,1/18 (2.74)
S25L V29W W56H T59Q E61L,0.40 0.35 0.62 0.32 0.31 1.00,1/18 (3.08)
S25V L30W W56E,0.43 0.39 0.34 0.12 0.27 0.43,0/18
S25L S26Q V29W S38A W56N T59Q,0.28 0.30 0.04 0.14 0.32 0.43,3/18 (2.66)
S25L V29E W56H E61L,0.37 0.12 0.47 0.04 0.18 0.36,2/18 (2.32)
S25L Q27E V29E W56N,0.07 0.12 0.25 0.07 0.35 0.32,0/18
S25L S26Q W56Q,-0.41 -0.56 -0.54 -0.57 -0.64 -0.48,0/18
S25V S26Q W56N S62D,-0.21 -0.42 -0.39 -0.48 -0.36 -0.33,0/18
S25L S26Y W56N T59Q,-0.23 -0.76 -0.60 -0.52 -0.52 -0.45,0/18

The first 4 entries again:

changes,"replicates, log10 nM",empty controls
S25L V29D S33Q W56E,-0.02 0.02 -0.06 0.05 -0.11 0.18,0/18
S25L V29A W56G,0.75 1.16 0.72 1.00 0.48 1.29,0/18
S25L S26E W56N T59Q E61M,0.31 0.13 0.09 0.30 0.03 0.09,0/18
S25L S26P W56D S62D,-0.27 -0.50 -0.70 -0.76 -0.60 -0.49,1/18 (2.97)

Empty control strains, which show no peptide, gave a signal in 4% of pairings with all light chain designs; the median was 2.64 and 95% of these signals were weaker than 1.59. No background was subtracted. Also given: how often the same scFv was detected with the empty control strains, with their mean in brackets. Of ten entries with the parent sequence, four were seen in most replicates (averages 0.34 to 2.37), three in one and three in none, so single entries are noisy. The authors averaged sequences with at least three values out of six and counted those with two or fewer as poor binders. Values of this round are not directly comparable with the first-round values of the same sequences.

Data: MIT Lincoln Laboratory AlphaSeq set, Li et al. 2023, doi:10.1038/s41467-023-39022-2, as distributed in FLAb.